Values of other authors, collected in patent publication US20240239781A1, “1H-PYRAZOLE DERIVATIVES AS SIGMA LIGANDS” (ACONDICIONAMIENTO TARRASENSE, priority 2021, published 2024).

By UniProt entry, the sequences of proteins in these tests, tags left out.
UniProt Q99720, whole entry: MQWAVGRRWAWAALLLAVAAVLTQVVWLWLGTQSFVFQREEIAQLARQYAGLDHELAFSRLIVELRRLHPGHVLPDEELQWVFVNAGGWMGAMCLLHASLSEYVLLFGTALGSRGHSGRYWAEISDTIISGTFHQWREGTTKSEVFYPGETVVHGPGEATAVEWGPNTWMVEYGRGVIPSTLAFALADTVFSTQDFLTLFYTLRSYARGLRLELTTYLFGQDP

Biological target: sigma-1 (σ1) site (Homo sapiens, UniProt Q99720)
Details: background statement; cited from earlier work

(+)-SKF-10047
affinity for the sigma-1 (σ1) site: nanomolar affinity
